Test results as given in ChEMBL document CHEMBL1135572, “Kinetic studies of the binding of acridinecarboxamide topoisomerase poisons to DNA: implications for mode of binding of ligands with uncharged chromophores” (J Med Chem, 2002).

Experiments:
Nucleic Acid [1] = assay: Binding constant to Poly (dA-dT) determined by ethidium bromide displacement; format: nucleic-acid assay
Nucleic Acid [2] = assay: Binding constant to Poly (dG-dC) determined by ethidium bromide displacement; format: nucleic-acid assay

Structure (SMILES) | Log K (Nucleic Acid [1]) | Log K (Nucleic Acid [2])
CN(C)CCCCNC(=O)c1cccc2nc3ccccc3nc12 | 6.3 | 6.34
CN(C)CCNC(=O)c1cccc2cc3ccccc3nc12 | 6.12 | 6.54
Cc1c2ccccc2nc2c(C(=O)NCCN(C)C)cccc12 | 6.48 | 5.97
CN(C)CCCCNC(=O)c1cccc2cc3ccccc3nc12 | 6.47 | 6.4
